The values below are quoted from earlier work in patent US20160250208A1, “TREATING ORGAN-SPECIFIC T CELL MEDIATED AUTOIMMUNE DISEASES” (UNIVERSITY OF MASSACHUSETTS, priority 2013, published 2016).

One series concerns T1D patients. The settings on record: Orban et al., Lancet 2011; cited from earlier work.
A further series has as its system NOD mice. The settings on record: Lenschow et al., J Exp Med. 1995; cited from earlier work.

For the substance “Abatacept: a fusion protein that binds to and sequesters B7”, the “outcome in T1D patients” value in the series with T1D patients is “preservation of beta-cell mass for over two years”. Besides, in the series on NOD mice, the “protection of NOD mice from diabetes” value was “protected from diabetes”.
